Experimental data taken from patent US20070134261A1, “Effectors of innate immunity” (priority 2001, published 2007).

Columns and labels:
[1] = tested on: whole human blood; assay: E. coli LPS induced IL-8 in whole human blood (ELISA); assay type: cell-based
[2] = tested on: human PBMCs; assay: IL-6 and MCP-3 release from human PBMCs (ELISA, Example 15); assay type: cell-based; details: pre-incubation with inhibitor

Molecule | LPS-induced production of IL-8 [1] | MCP-3 production from combined LL-37 and IL-1β [2]
CC[C@H](C)[C@H](N)C(=O)N[C@@H](CC(C)C)C(=O)N1CCC[C@H]1C(=O)N[C@@H](Cc1c[nH]c2ccccc12)C(=O)N[C@@H](CCCCN)C(=O)N[C@@H](Cc1c[nH]c2ccccc12)C(=O)N1CCC[C@H]1C(=O)N[C@@H](Cc1c[nH]c2ccccc12)C(=O)N[C@@H](Cc1c[nH]c2ccccc12)C(=O)N1CCC[C@H]1C(=O)N[C@@H](Cc1c[nH]c2ccccc12)C(=O)N[C@@H](CCCNC(=N)N)C(=O)N[C@@H](CCCNC(=N)N)C(N)=O [SEQ ID NO: 2] | inhibited | 
oxidised ATP |  | partially blocked
